Literature values, collected in US5776946A, “Peripheral benzodiazepine receptor ligands as antiinflammatory agents” (priority 1995, dated 1998).

The chains behind the UniProt entries cited, without tags or fusion partners.
UniProt P30536, whole entry: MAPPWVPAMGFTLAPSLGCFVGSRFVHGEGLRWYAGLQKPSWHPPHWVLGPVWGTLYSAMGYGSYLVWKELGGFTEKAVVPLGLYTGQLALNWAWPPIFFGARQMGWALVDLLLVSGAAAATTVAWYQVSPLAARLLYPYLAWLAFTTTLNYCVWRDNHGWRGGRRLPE

Legend:
[1] = molecular target: T1, peripheral benzodiazepine receptors in brain (Homo sapiens, UniProt P30536); conditions: read-out: ability to displace bound PK 11195 from peripheral benzodiazepine receptors (Ki); cited from earlier work
T1 construct: In brain, this has been determined to be 3.5 nM for PK 11195 itself; host or cells: brain (Doble et al., 1987)

[2] = molecular target: T2, peripheral benzodiazepine receptors, human brain tissue (Homo sapiens, UniProt P30536); conditions: read-out: equilibrium dissociation constant, or affinity (Kd); cited from earlier work
T2 construct: host or cells: human brain tissue (Doble et al., 1987)

## CCC(C)N(C)C(=O)c1cc2ccccc2c(-c2ccccc2Cl)n1 (centres unmarked) [PK 11195, 1-(2-chlorophenyl)-N-methyl-N-(1-methylpropyl)-3-isoquinolinecarboxamide]
[1]
  Ki: 3.5 nM
[2]
  Kd: 4.3 nM
